Reference: ChEMBL document CHEMBL2040753, “Development of potent and selective inhibitors of aldo-keto reductase 1C3 (type 5 17β-hydroxysteroid dehydrogenase) based on N-phenyl-aminobenzoates and their structure-activity relationships” (J Med Chem, 2012)
pIC50: −log10 of the molar value.

Target: T1, Aldo-keto reductase family 1 member C1 (Homo sapiens, UniProt Q04828)
T1 sequence (Q04828 whole entry): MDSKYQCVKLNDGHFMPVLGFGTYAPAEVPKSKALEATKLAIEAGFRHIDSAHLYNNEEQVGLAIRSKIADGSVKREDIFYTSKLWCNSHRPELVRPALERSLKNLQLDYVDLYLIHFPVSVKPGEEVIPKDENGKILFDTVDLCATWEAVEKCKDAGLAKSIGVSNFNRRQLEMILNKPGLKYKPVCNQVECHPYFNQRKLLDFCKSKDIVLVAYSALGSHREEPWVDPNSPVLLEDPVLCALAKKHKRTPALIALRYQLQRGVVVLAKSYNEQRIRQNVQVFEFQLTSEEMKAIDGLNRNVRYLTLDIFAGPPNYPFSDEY
Test: Inhibition of recombinant AKR1C1 assessed as NADP+ dependent oxidation of S-tetralol by fluorescence assay

SMILES | pIC50
CC(=O)c1ccc(Nc2cccc(C(=O)O)c2)cc1 | 4.81
O=C(O)c1cccc(Nc2ccc(Cl)cc2)c1 | 4.52
CC(C)(C)c1ccc(Nc2cccc(C(=O)O)c2)cc1 | 4.45
